Structures are written as SMILES. Only a part is listed here, and it is no random draw. Inconclusive results are not listed. The source made the active and inactive calls.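 The calls were made as follows: active = fitted activation curve crossing 40% at a concentration no higher than the sample's top valid tested dose; inconclusive = flat fitted curve at 30% to 70% activation, or poor curve fit; inactive = signal decrease, flat curve within 30%, or the rest.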

The text below walks through data of PubChem BioAssay AID602296 (Broad Institute, 2012).

The test is described as follows: sustained heat shock response element induction – cell-based, mouse, luciferase, cherry-pick, dose, confirmation (AID 602296).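 Also: test compounds applied by themselves with no MG132 co-treatment.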 To be noted: NIH3T3-HGL HSF-1 response element luciferase, 48 h; at 26 µM (top of the series).
Take `CCc1nc2c(n1)c1c(non1O)c1c2no[n+]1[O-]`: the activation is inactive: -100%.
